In assay [1] the test system is MOLM-13 cells. Conditions: read-out: GI50, cell growth inhibitory activity, MOLM-13, day 7, cultured 7 days, assigned by order and values, Hydrochloride.
Assay [2] has as its system MV-4-11 cells. As to conditions: Exp. Ex. 3-3, oral; for Estimated tumor volume (test end date) Mean ± S.E.: 31 days after transplantation.
The subject of assay [3] is MOLM-13 cells. As to the kind of experiment: cells. As to conditions: Homo sapiens.
A further assay relates to K562 cells. Kind of assay: cells. Conditions: Homo sapiens.
The test system of another assay is OCI-AML3 cells. Kind of assay: cells. Conditions: Homo sapiens, OCI-AML-3, 168 h, read-out: GI50 (nM) Day 7.
Assay [4] deals with MV-4-11 cells. As to the kind of experiment: cells. Conditions: Homo sapiens.
Assay [5] relates to MV-4-11 cells. As to the kind of experiment: Antitumor activity in MV-4-11 cell subcutaneous transplant model (Experimental Example 3-2). Type of assay: in vivo, mice. Conditions: Exp. Ex. 3-2, oral; for Estimated tumor volume (test end date) Mean ± S.E.: 34 days after transplantation. The procedure: MV-4-11 cells were purchased from ATCC. The female FOX CHASE SCID C.B.17/Icr-scid/scidJcl mice were purchased from Claire Japan. […] The compound was administered as a suspension in 0.5% MC. For the compound-free group, 0.5% MC was administered as a solvent. The estimated individual tumor volume was measured from the day of the grouping to 34 days after the transplantation (test end date).
(§1) Tumor growth inhibitory rate %=(1−TVCt/TVCc)×100 TVC=(Individual tumor volume on the test end date)−(Individual tumor volume on the grouping date) TVCt: TVC mean value of the compound administration group TVCc: TVC mean value of the compound-free group

Assay [6] concerns MV-4-11 cells. As to the kind of experiment: Antitumor activity in MV-4-11 cell subcutaneous transplant model (Experimental Example 3-4). Type of assay: in vivo, mice. Conditions: Exp. Ex. 3-4, oral. On the procedure:
MV-4-11 cells were purchased from ATCC. The female FOX CHASE SCID C.B.17/Icr-scid/scidJcl mice were purchased from Claire Japan. […] The compound was administered as a suspension in 0.5% MC. For the compound-free group, 0.5% MC was administered as a solvent. The estimated individual tumor volume was measured from the day of the grouping to 32 days after the transplantation (test end date).
as §1

The mark [7] stands for this setting: MOLM-13, 72 h, read-out: GI50 (μM) Day3 MOLM-13, MOLM-13, Day3.
Where [8] appears, read: MOLM-13, 168 h, read-out: GI50 (μM) Day7 MOLM-13, MOLM-13, Day7.
Setting [9] is: K562, 72 h, read-out: GI50 (μM) Day3 K562.
Where [10] appears, read: K562, 168 h, read-out: GI50 (μM) Day7 K562.
The mark [11] stands for this setting: MV4-11, 72 h, read-out: GI50 (μM) Day3 MV4;11, MV4;11, Day3.
[12] abbreviates: MV4-11, 168 h, read-out: GI50 (μM) Day7 MV4;11, MV4;11, Day7.
The mark [13] stands for this setting: MOLM-13, 72 h, read-out: GI50, cell growth inhibitory activity, MOLM-13, day 3, MOLM-13 cells, cultured 3 days, assigned by order and values.
[14] abbreviates: MOLM-13, 168 h, read-out: GI50, cell growth inhibitory activity, MOLM-13, day 7, MOLM-13 cells, cultured 7 days, assigned by order and values.
[15] abbreviates: K562, 72 h, read-out: GI50, cell growth inhibitory activity, K562, day 3.
Where [16] appears, read: K562, 168 h, read-out: GI50, cell growth inhibitory activity, K562, day 7.
[17] abbreviates: MV4-11, 72 h, read-out: GI50, cell growth inhibitory activity, MV-4-11, day 3, MV-4-11 cells, cultured 3 days, assigned by order and values.
The mark [18] stands for this setting: MV4-11, 168 h, read-out: GI50, cell growth inhibitory activity, MV-4-11, day 7, MV-4-11 cells, cultured 7 days, assigned by order and values.

The values below come from patent US11236106B2, “Cycloalkane-1,3-diamine derivative” (Daiichi Sankyo Company, Limited, priority 2018, dated 2022).

Where a name gives a salt, the structure may show the parent alone. Read-outs that look alike come from different tables or passages of the source. Where only a bound is given, the exact number is not on record here.

Turning to `COc1nc(N(C)C2CC(NCC3CCC(c4cc(OC)c(OC)nn4)CC3)CC2O)c2cc(CC(F)(F)F)sc2n1` (single isomer, unassigned) [Example 128A, Hydrochloride], in the assay with MOLM-13 cells [1], the concentration for 50% growth inhibition (GI50) (as a rule, the concentration that inhibits growth by half) is 1450 nM.
For the compound `COc1cc(-c2ccc(CN[C@H]3C[C@@H](O)[C@@H](N(C)c4ncnc5sc(CC(F)(F)F)cc45)C3)cc2)cnc1C#N` [Example 22, 5-[4-({[(1R,3R,4S)-3-hydroxy-4-{methyl[6-(2,2,2-trifluoroethyl)thieno[2,3-d]pyrimidin-4-yl]amino}cyclopentyl]amino}methyl)phenyl]-3-methoxypyridine-2-carbonitrile Hydrochloride], the “Tumor growth inhibitory rate (%)” value with MV-4-11 cells [2] (qdx17, 25 mg/kg/day) amounted to 27%; in the assay with MV-4-11 cells [2] (qdx17, 50 mg/kg/day), 99%; in the assay with MV-4-11 cells [2] (qdx17, 100 mg/kg/day), 100%. Also, the “Estimated tumor volume (test end date) Mean ± S.E.” value in the assay with MV-4-11 cells [2] (qdx17, 25 mg/kg/day) is 712 ± 82; in the assay on MV-4-11 cells [2] (qdx17, 50 mg/kg/day) it was 9 ± 4; in the assay with MV-4-11 cells [2] (qdx17, 100 mg/kg/day), 0 ± 0. Moreover, the GI50 stood at 0.675 µM in the assay on MOLM-13 cells [3] (setting [7]); 0.262 µM in the assay on MOLM-13 cells [3] (setting [8]); 1.37 µM with K562 cells (setting [9]); 0.925 µM in the assay with K562 cells (setting [10]); 217 nM in the assay with OCI-AML3 cells; 0.189 µM with MV-4-11 cells [4] (setting [11]). For the same compound, in the assay with MV-4-11 cells [4] (setting [12]), the GI50 stood at 0.0971 µM.
In the case of `CN(c1ncnc2sc(CC(F)(F)F)cc12)[C@H]1C[C@@H](NCc2ccc(-c3cccc4c3cnn4S(C)(=O)=O)cc2)C[C@H]1O` [Example 23, (1R,2S,4R)-4-[({4-[1-(methanesulfonyl)-1H-indazol-4-yl]phenyl}methyl)amino]-2-{methyl[6-(2,2,2-trifluoroethyl)thieno[2,3-d]pyrimidin-4-yl]amino}cyclopentan-1-ol Hydrochloride], the “Tumor growth inhibitory rate (%)” value with MV-4-11 cells [2] (qdx17, 25 mg/kg/day) was determined as 37%; with MV-4-11 cells [2] (qdx17, 50 mg/kg/day), 97%; with MV-4-11 cells [2] (qdx17, 100 mg/kg/day), 100%. In addition, the GI50 in the assay on MOLM-13 cells [3] (setting [7]) is 0.594 µM; in the assay with MOLM-13 cells [3] (setting [8]), 0.155 µM; in the assay on K562 cells (setting [9]), 1.55 µM; with K562 cells (setting [10]) it was 0.586 µM; in the assay with MV-4-11 cells [4] (setting [11]) it was 0.106 µM; with MV-4-11 cells [4] (setting [12]), 0.0584 µM.
Turning to `COc1cc(-c2ccc(CN[C@H]3C[C@@H](O)[C@@H](N(C)c4ncnc5sc(CC(F)(F)F)cc45)C3)cc2)nnc1OC` [Example 25, (1R,2S,4R)-4-({[4-(5,6-dimethoxypyridazin-3-yl)phenyl]methyl}amino)-2-{methyl[6-(2,2,2-trifluoroethyl)thieno[2,3-d]pyrimidin-4-yl]amino}cyclopentan-1-ol Hydrochloride], the “Tumor growth inhibitory rate (%)” value in the assay with MV-4-11 cells [5] (qdx18, 12.5 mg/kg/day) is 33.0%; in the assay on MV-4-11 cells [5] (qdx18, 25 mg/kg/day) it was 81.9%; with MV-4-11 cells [5] (qdx18, 50 mg/kg/day), 100%; in the assay on MV-4-11 cells [5] (qdx18, 100 mg/kg/day) it was 100%. Besides, the GI50 in the assay on MOLM-13 cells [3] (setting [7]) is 0.224 µM; in the assay with MOLM-13 cells [3] (setting [8]) it was 0.04 µM; in the assay with K562 cells (setting [9]), greater than 5 µM; with K562 cells (setting [10]) it was 3.47 µM; with OCI-AML3 cells, 39 nM; in the assay with MV-4-11 cells [4] (setting [11]), 0.0253 µM. Besides, the GI50 in the assay with MV-4-11 cells [4] (setting [12]) was 0.018 µM.
Regarding `COc1nc(N(C)[C@H]2C[C@@H](NCc3ccc(-c4cc(OC)c(OC)nn4)cc3)C[C@H]2O)c2cc(CC(F)(F)F)sc2n1` [Example 27, (1R,2S,4R)-4-({[4-(5,6-dimethoxypyridazin-3-yl)phenyl]methyl}amino)-2-{[2-methoxy-6-(2,2,2-trifluoroethyl)thieno[2,3-d]pyrimidin-4-yl](methyl)amino}cyclopentan-1-ol Hydrochloride], the “Tumor growth inhibitory rate (%)” value is recorded as 75.8% in the assay on MV-4-11 cells [5] (qdx18, 25 mg/kg/day); 97.8% in the assay with MV-4-11 cells [5] (qdx18, 50 mg/kg/day); 100% in the assay with MV-4-11 cells [5] (qdx18, 100 mg/kg/day). Further, the “Estimated tumor volume (test end date) Mean ± S.E.” value is given as 335 ± 42 in the assay with MV-4-11 cells [5] (qdx18, 25 mg/kg/day); 30 ± 8 in the assay on MV-4-11 cells [5] (qdx18, 50 mg/kg/day); 0 ± 0 with MV-4-11 cells [5] (qdx18, 100 mg/kg/day). Moreover, the GI50 in the assay with K562 cells (setting [9]) is 3.37 µM; in the assay on K562 cells (setting [10]), 2.1 µM; with OCI-AML3 cells, 24 nM; in the assay with MV-4-11 cells [4] (setting [11]) it was 0.0152 µM; in the assay with MV-4-11 cells [4] (setting [12]), 0.0123 µM.
For the compound `COc1cc(-c2ccc(CN[C@H]3C[C@@H](O)[C@@H](N(C)c4ncnc5sc(CC(F)(F)F)cc45)C3)cc2)cnc1C.Cl` [Example 60, (1R,2S,4R)-4-({[4-(5-methoxy-6-methylpyridin-3-yl)phenyl]methyl}amino)-2-{methyl[6-(2,2,2-trifluoroethyl)thieno[2,3-d]pyrimidin-4-yl]amino}cyclopentan-1-ol hydrochloride], the 50% growth inhibitory concentration (GI50) in the assay with MOLM-13 cells [3] (setting [7]) was found to be 0.614 µM; with MOLM-13 cells [3] (setting [8]), 0.0807 µM; in the assay with K562 cells (setting [9]), 3.4 µM; with K562 cells (setting [10]), 2.39 µM; in the assay with MV-4-11 cells [4] (setting [11]), 0.0776 µM; in the assay on MV-4-11 cells [4] (setting [12]), 0.0325 µM. The “Tumor growth inhibitory rate (%)” value was 43% in the assay on MV-4-11 cells [6] (qdx16, 25 mg/kg/day); 97% in the assay on MV-4-11 cells [6] (qdx16, 50 mg/kg/day); 100% with MV-4-11 cells [6] (qdx16, 100 mg/kg/day).
For `COc1cc(-c2ccc(CN[C@H]3C[C@@H](O)[C@@H](N(C)c4ncnc5sc(CC(F)(F)F)cc45)C3)cc2)cnc1OC.Cl` [Example 67, (1R,2S,4R)-4-({[4-(5,6-dimethoxypyridin-3-yl)phenyl]methyl}amino)-2-{methyl[6-(2,2,2-trifluoroethyl)thieno[2,3-d]pyrimidin-4-yl]amino}cyclopentan-1-ol hydrochloride], the concentration for 50% growth inhibition (GI50) in the assay with MOLM-13 cells [3] (setting [13]) turned out to be 1.42 µM; in the assay with MOLM-13 cells [3] (setting [14]), 0.13 µM; in the assay with K562 cells (setting [15]) it was 4 µM; with K562 cells (setting [16]) it was 2.36 µM; in the assay with MV-4-11 cells [4] (setting [17]) it was 0.0676 µM; in the assay with MV-4-11 cells [4] (setting [18]) it was 0.044 µM. Besides, the “Tumor growth inhibitory rate (%)” value in the assay with MV-4-11 cells [6] (qdx16, 25 mg/kg/day) worked out at 9%; with MV-4-11 cells [6] (qdx16, 50 mg/kg/day), 61%; in the assay on MV-4-11 cells [6] (qdx16, 100 mg/kg/day), 100%.
Turning to `COc1cc(-c2ccc(CN[C@H]3C[C@@H](O)[C@@H](N(C)c4ncnc5sc(CC(F)(F)F)cc45)C3)cc2)cnc1F.Cl` [Example 68, (1R,2S,4R)-4-({[4-(6-fluoro-5-methoxypyridin-3-yl)phenyl]methyl}amino)-2-{methyl[6-(2,2,2-trifluoroethyl)thieno[2,3-d]pyrimidin-4-yl]amino}cyclopentan-1-ol hydrochloride], the “Tumor growth inhibitory rate (%)” value in the assay with MV-4-11 cells [2] (qdx17, 25 mg/kg/day) was found to be 0%; in the assay on MV-4-11 cells [2] (qdx17, 50 mg/kg/day) it was 42%; with MV-4-11 cells [2] (qdx17, 100 mg/kg/day), 97%. Also, the concentration for 50% growth inhibition (GI50) in the assay with MOLM-13 cells [3] (setting [13]) came out at 1.93 µM; with MOLM-13 cells [3] (setting [14]), 0.0882 µM; in the assay on K562 cells (setting [15]), 4.93 µM; with K562 cells (setting [16]) it was 2.85 µM; in the assay with MV-4-11 cells [4] (setting [17]), 0.0462 µM; with MV-4-11 cells [4] (setting [18]), 0.0207 µM.
With `COc1nc(N(C)[C@H]2C[C@@H](NCc3ccc(-c4cc(OC)c(OC)cn4)cc3)C[C@H]2O)c2cc(CC(F)(F)F)sc2n1` [Example 116, (1R,2S,4R)-4-({[4-(4,5-dimethoxypyridin-2-yl)phenyl]methyl}amino)-2-{[2-methoxy-6-(2,2,2-trifluoroethyl)thieno[2,3-d]pyrimidin-4yl](methyl)amino}cyclopentan-1-ol hydrochloride], the 50% growth inhibitory concentration (GI50) in the assay with MOLM-13 cells [3] (setting [14]) stood at 0.0592 µM; in the assay with K562 cells (setting [16]), 1 µM; in the assay with OCI-AML3 cells, 46 nM; in the assay with MV-4-11 cells [4] (setting [18]) it was 0.0133 µM.
